# scFv variants of Ab-91 (heavy chain) against a SARS-CoV-2 spike peptide

Source: Engelhart et al. 2022 (doi:10.1038/s41597-022-01779-4), MIT Lincoln Laboratory and A-Alpha Bio; data file from the FLAb repository.

All variants were tested on one target, the spike HR2 peptide PDVDLGDISGINAS (SARS-CoV-2).

Each scFv is VL, the linker GGGGSGGGGSGGGGS, VH, as in the parent Ab-91, and differs from it in the CDRs of the heavy chain only.
VL: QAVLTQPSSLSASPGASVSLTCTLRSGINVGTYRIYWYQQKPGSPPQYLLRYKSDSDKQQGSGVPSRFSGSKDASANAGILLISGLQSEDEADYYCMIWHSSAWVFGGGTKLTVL
VH: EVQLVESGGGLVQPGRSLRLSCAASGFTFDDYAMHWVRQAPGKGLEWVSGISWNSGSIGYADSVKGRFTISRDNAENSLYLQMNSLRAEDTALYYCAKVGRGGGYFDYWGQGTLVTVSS

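The starting antibody came from a phage panning campaign against this peptide. AAYL51 was designed without a model: most single CDR substitutions and a random sample of double and triple ones. The scFvs were displayed on barcoded MATa yeast, the peptide on MATalpha yeast. Mating (16 h, 30 °C) was followed by selection of diploids and sequencing of their barcodes. Read counts were normalised to the haploid input and turned into Kd by a linear fit to BCL2-family pairs of known affinity, for each replicate. Mating was done three times.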

The parent's heavy chain CDRs are GFTFDDYAMH, GISWNSGSIGYADSVK, VGRGGGYFDY; each variant's own CDRs replace them letter for letter. Numbers give log10(Kd / nM), so 0 is 1 nM and 3 is 1 µM. Smaller is tighter. The mean shown is taken over the replicates in which the pair was detected. A pair that was not seen in any replicate is written "no signal"; this usually means weak binding, but a binder can also be missed.

CDR-H1	CDR-H2	CDR-H3	mean log10 Kd (nM)	seen in
GFTFDDYAMP	GQSWNSGSIGYADSVK	VGRGGGYFDP	4.45	1 of 3
GFTFDDYAMH	GISWNSISIGYADSVK	VGRCGGYFDR	4.40	3 of 3
GFTFDDYAMH	GISWNEGSIGYADSVV	VGRGGGYNDY	3.45	3 of 3
GFTPDDYAMH	GISWNSGSIGYADSVK	VGRVGIYFDY	3.91	1 of 3
GFTFDDYAMH	GISWNSKSIGIADSVK	VARGGGYFDY	2.59	3 of 3
GFRFDDYAMH	YISMNSGSIGYADSVK	VGRGGGYFDY	no signal	0 of 3
GFTFDDYAMH	GISWNSGSIGYADSVK	VGRVGWYPDY	5.72	2 of 3
GFTFDDYAMH	GISWNSGSIGYAFSVK	VGRGQGTFDY	4.56	1 of 3
GFTFDDYAMH	GISINSGSGGYAASVK	VGRGGGYFDY	no signal	0 of 3
GFTFNDYAMH	GISWNSGSIGYADSVK	VGRGGGYFIF	3.62	1 of 3
GFTFDDYYMH	GISWNSGSIGYADSDK	VGRGRGYFDY	5.36	3 of 3
GPTFDDYAMH	GISWNSQSIGYADSVK	VGRGGGLFDY	5.72	2 of 3
GFTFDYYAME	GISWNSGSIGYADSVK	VGRGGGYFGY	no signal	0 of 3
GFTFDDYAAH	GISWNSGSIGYADSVK	VGRGGGYHVY	3.08	3 of 3
GFTFDDYAVH	GISWSSGSIGYADSVK	VGRGGGYFDY	2.27	1 of 3
GFTFDDYAMH	GISWNSGWIGYADSVK	HGRGGGMFDY	no signal	0 of 3
GFTFDDYAMM	GISWNSFSIGYADSVK	VRRGGGYFDY	4.98	3 of 3
GFTFDDYAVH	GIIWNSGSIGYADSVK	VWRGGGYFDY	4.35	1 of 3
GFHFFDYAMH	GISWNSGSIGYADSHK	VGRGGGYFDY	no signal	0 of 3
GFSFDDYAMH	GISWNSGSIGYADKVK	VGTGGGYFDY	5.14	3 of 3
GFTFDDYAMH	GIKWNSGSIGYADSVK	VGRFGGYFDY	5.18	1 of 3
GFTFDWYAMH	MISWNSGSIGYADSHK	VGRGGGYFDY	no signal	0 of 3
GFTMDDYAMH	GISWNSGSIGYADSVK	MGRGGGYFKY	3.03	1 of 3

The remaining entries, values ahead:

mean log10 Kd (nM)	seen in	CDR-H1	CDR-H2	CDR-H3
4.67	2 of 3	GFTFDDYAMH	GLSWNYGSIGYADSTK	VGRGGGYFDY
4.56	2 of 3	GFTFDDYAMH	HISWNSGSRGYADSVK	VGRGGGYMDY
3.96	3 of 3	GFTFADYAMH	GISWLSGSIGYADSVT	VGRGGGYFDY
no signal	0 of 3	GFTFDDYAMW	GISMNSPSIGYADSVK	VGRGGGYFDY
5.09	3 of 3	RFFFDDGAMH	GISWNSGSIGYADSVK	VGRGGGYFDY
no signal	0 of 3	GFTFDWYAMH	GISWNSGSIGYADSVL	VDRGGGYFDY
no signal	0 of 3	GFTFDDYAMH	MISWNSHSIGYADSVK	LGRGGGYFDY
no signal	0 of 3	GFTFDDYAAH	GISWNSGSIGYEDSVK	VGYGGGYFDY
2.74	3 of 3	GFTFDIYAMH	GISWNDGSIGYADSVK	VGRGGGYFFY
5.17	2 of 3	GFTFDDLASH	GISQNSGSIGYADSVK	VGRGGGYFDY
no signal	0 of 3	GFTFDDMAMH	GISWPSGSIGYADSVK	VGRGTGYFDY
no signal	0 of 3	GFTYDDYAMH	GISWNSGCIGYADSVK	VGRRGGYFDY
3.20	3 of 3	GLTFYDYAMH	GISYNSGSIGYADSVK	VGRGGGYFDY
no signal	0 of 3	GFTFDDYAMH	SISLNSGSIGYADSVK	VGRGTGYFDY
no signal	0 of 3	GFTFDDYAMI	GISWNSGSIGYADSVK	VGRGGGGFDR
3.47	2 of 3	IFTFDDYAMH	GIAWNSGSIGYADSVK	VGRGGGYFDI
no signal	0 of 3	GFTFDDYAMH	GISWNSGSIGYADSVK	VGRGLGLFDY
0.92	3 of 3	GFTFDDYAMH	GISWNSGSIGYADSVK	VGFGGTCFDY
no signal	0 of 3	GFTFDDYIGH	GISWNSGSIGYADSVK	VGRGGPYFDY
3.07	2 of 3	GFTFDQYAMH	GISWNSGSIGYADYVK	VGRGGGYFDY
no signal	0 of 3	GFTFDDYAMH	GISWNSGSIGYAYSVK	VGRHGGDFDY
4.40	1 of 3	GFTFDDSAMH	GISWNSGSLGYADSVK	VGRGGFYFDY
no signal	0 of 3	FFTFDDYAMH	GISWNSWSIGYPDSVK	VGRGGGYFDY

Empty control strains, which show no peptide, gave a signal in 21% of pairings with library AAYL51; the median was 4.54 and 95% of these signals were weaker than 3.26. No background was subtracted.